Biological target: VEGFR2 (Homo sapiens, UniProt P35968)
Assay: Inhibition against VEGFR2 kinase (receptor tyrosine kinase activity, HTRF method)
Assay type: biochemical
Conditions: read-out: IC50 (concentration required for 50% inhibition of VEGFR2 kinase activity), His6-VEGFR2 cytoplasmic domain, biotin-poly(GT) substrate, ATP, 30° C. 10 minutes
Method: Measurement of Inhibition Against Receptor Tyrosine Kinase Activity
This assay is used to determine inhibition of a test substance on tyrosine kinase activity. DNA coding for the cytoplasmic domain of VEGFR2 is obtained by total cDNA synthesis (Edwards M, International Biotechnology Lab 5(3), 19–25, 1987) or by cloning. Expression in an appropriate expression system can produce a polypeptide with tyrosine kinase activity. […]
The supernatant was added to a Ni—NTA agarose column (3 ml, purchased from Qiagen) equilibrated with Buffer A {20 mM Tris-HCl (pH 8.5), 5 mM 2-mercaptoethanol, 500 mM KCl, 20 mM imidazole, 10% (v/v) glycerol}. […] After dialysis, it was supplied for SDS-electrophoresis, and the recombinant protein (His6-VEGFR2, cytoplasmic domain of VEGFR2 fused with 6 histidine residues at the N-terminus) detected at a molecular weight of approximately 100 kDa with Coumassie Brilliant Blue staining was assayed using BSA (bovine serum albumin, purchased from Sigma Co.) as the standard substance, and stored at −80° C. until use. […]

Protein sequences, listed by entry. Tags and fused reporters are not part of them. Residues count along the entry.
UniProt P35968, 786-1356 limits assumed: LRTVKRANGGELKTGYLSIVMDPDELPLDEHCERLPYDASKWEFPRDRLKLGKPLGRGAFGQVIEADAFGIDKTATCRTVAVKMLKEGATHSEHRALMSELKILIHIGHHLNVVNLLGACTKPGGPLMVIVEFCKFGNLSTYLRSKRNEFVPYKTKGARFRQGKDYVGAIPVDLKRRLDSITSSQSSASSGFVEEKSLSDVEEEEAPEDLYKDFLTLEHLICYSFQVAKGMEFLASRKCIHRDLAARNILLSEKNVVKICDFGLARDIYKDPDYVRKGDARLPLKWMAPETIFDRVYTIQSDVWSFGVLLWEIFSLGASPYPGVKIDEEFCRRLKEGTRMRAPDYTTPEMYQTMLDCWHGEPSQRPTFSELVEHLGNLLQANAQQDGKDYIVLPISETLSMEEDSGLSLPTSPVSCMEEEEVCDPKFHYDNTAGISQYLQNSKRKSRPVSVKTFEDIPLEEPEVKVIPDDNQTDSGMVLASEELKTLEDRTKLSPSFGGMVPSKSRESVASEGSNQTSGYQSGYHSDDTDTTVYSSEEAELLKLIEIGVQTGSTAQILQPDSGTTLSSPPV

Compound | IC50
CCN(CC)CCCOc1cc2nccc(Oc3ccc(NC(=O)Nc4nccs4)c(F)c3)c2cc1C#N | 70 nM
CCOCCCNC(=O)Nc1ccc(Oc2ccnc3cc(OC)c(C(N)=O)cc23)cc1F | 1.4 nM
